{
  "source": "patent US4486419A",
  "about": "“5,2',3',4',4\",6\"-Hexadeoxykanamycin and its 1-N-acylated derivative” (Zaidan Hojin Biseibutsu Kagaku Kenkyu Kai, priority 1982, dated 1984)",
  "key": {"[1]": {"test_system": "Micrococcus flavus FDA 16", "test": "microbe, parasite or virus in culture", "settings": "FDA16, 18 h"}, "[2]": {"test_system": "Bacillus cereus ATCC 10702", "test": "microbe, parasite or virus in culture", "settings": "ATCC10702, 18 h"}},
  "data": [
    {"smiles": "C[C@@H]1C[C@H](N)[C@@H](O)[C@@H](O[C@@H]2C[C@H](O[C@@H]3CCC[C@@H](CN)O3)[C@@H](N)C[C@H]2N)O1", "note": "[Hexadeoxykanamycin, 5,2',3',4',4\",6\"-hexadeoxykanamycin]", "values": [
      {"measurement": "MIC", "setting": "[1]", "result": 12.5, "unit": "µg/mL"},
      {"measurement": "MIC", "setting": "[2]", "result": 6.25, "unit": "µg/mL"}
    ]},
    {"smiles": "C[C@@H]1C[C@H](N)[C@@H](O)[C@@H](O[C@@H]2C[C@H](O[C@@H]3CCC[C@@H](CN)O3)[C@@H](N)C[C@H]2NC(=O)[C@@H](O)CCN)O1", "note": "[Hexadeoxyamikacin, 1-N-[(S)-4-amino-2-hydroxybutyryl]-5,2',3',4',4\",6\"-hexadeoxykanamycin]", "values": [
      {"measurement": "MIC", "setting": "[1]", "result": 6.25, "unit": "µg/mL"},
      {"measurement": "MIC", "setting": "[2]", "result": 6.25, "unit": "µg/mL"}
    ]}
  ]
}
